Measurements published in patent US12507703B2, “Methods, devices and compositions for preserving human milk” (The Trustees of Princeton University, priority 2023, dated 2025).
Where a name gives a salt, the structure may show the parent alone. Where a SMILES comes first, the peptide text is derived from it.

Test system: lipase
Assay: Lipase/lipolysis assay (EnzChek Lipase Substrate, quenched BODIPY-fatty acid conjugate) on stored human milk
Conditions: for Hit in lipase inhibition screen (in words): approximately 2700 compound screen, hit = RFU <400
[1] = Food Additive Library compound added to fresh human milk, stored 1 week at −20° C., thawed at room temperature, RFU of <400 considered a hit
[2] = Biolog PM1 compound added to fresh human milk, stored 1 week at −20° C., RFU <400 = hit
[3] = compound added to fresh human milk, stored 1 week at −20° C., thawed at room temperature, RFU <400 considered a hit
[4] = Biolog PM4 compound added to fresh human milk, stored 1 week at −20° C., RFU <400 = hit
[5] = Biolog PM2a compound added to fresh human milk, stored 1 week at −20° C., RFU <400 = hit
[6] = Biolog PM5 compound added to fresh human milk, stored 1 week at −20° C., RFU <400 = hit
[7] = Food-Sourced Compound Library compound added to fresh human milk, stored 1 week at −20° C., thawed at room temperature, RFU <400 considered a hit
[8] = human milk stored 1 week at −20° C.

Row | Molecule | Lipase (RFU) [1] [RFU] | Lipase (RFU) [3] [RFU] | also measured
1 | CC(C)=CCC/C(C)=C/CC/C(C)=C/CO [Farnesol] | 1017.943 | – | –
2 | O=C(O)Cc1cccc(O)c1 [m-Hydroxy Phenyl Acetic Acid] | – | – | Lipase (RFU) [2]: 1038.295 RFU
3 | CCCCCCCCCCCCCCCC(=O)OC/C=C(C)/C=C/C=C(C)/C=C/C1=C(C)CCCC1(C)C [Retinyl palmitate] | 1094.036 | 860.1081 | –
4 | CCCCCCCCCCCCCCCCCCO [Compound 1-Hydroxyoctadecane, 1-Hydroxyoctadecane] | 866.8281 | – | –
5 | CSCCC(N)C(=O)O (racemic) [DL-Methionine] | 957.9009 | 657.4944 | –
6 | Cc1cn([C@H]2C[C@H](OP(=O)(O)O)[C@@H](CO)O2)c(=O)[nH]c1=O [Thymidine-3′-monophosphate] | – | – | Lipase (RFU) [4]: 989.4086 RFU
7 | CC(CN)C(=O)O (stereo not shown) [3-Amino-2-methylpropanoic acid] | – | 1055.242 | –
8 | OCC(O)CO [Glycerol] | – | – | Lipase (RFU) [2]: 1079.2 RFU
9 | CSCC[C@H](N)C(=O)O [L-Methionine] | 1119.509 | – | Lipase (RFU) [5]: 910.747 RFU; Lipase (RFU) [4]: 997.9974 RFU; Lipase (RFU) [6]: 992.2289 RFU; Lipase (RFU) [7]: 974.8047 RFU
10 | CCCCCCCCCCCCCCCC(=O)NCCO [Palmitoylethanolamide] | – | 929.4609 | –
11 | O=C(O)CCCCCC(=O)O [Pimelic acid] | – | 945.6384 | –
12 | O=C(O)c1ccc(C(=O)O)o1 [2,5-Furandicarboxylic acid] | – | 840.5751 | –
13 | CCCCCCCCCCCCCCCCC(=O)O [Heptadecanoic acid] | – | 1070.95 | –
14 | CCCCCCCCCCCCOC(=O)c1cc(O)c(O)c(O)c1 [Dodecyl gallate] | 869.3552 | – | –
15 | O=C(O)CCCc1c[nH]c2ccccc12 [Indole-3-butyric acid] | – | – | Lipase (RFU) [7]: 1084.211 RFU
16 | NCCOP(=O)(O)O [Phosphorylethanolamine] | – | – | Lipase (RFU) [7]: 919.5627 RFU
17 | CCCCCCCCC=O [Nonanal] | 935.1292 | 941.7523 | –
18 | O=C(O)CCCCCCCCCCCCCCC(=O)O [Hexadecanedioic acid] | – | – | Lipase (RFU) [7]: 818.4396 RFU
19 | COc1cc(-c2oc3cc(O)cc(O)c3c(=O)c2O[C@@H]2O[C@H](CO)[C@@H](O)[C@H](O)[C@H]2O[C@@H]2O[C@@H](C)[C@H](O)[C@@H](O)[C@H]2O)ccc1O [Isorhamnetin-3-O-neohespeidoside] | – | 971.4582 | –
20 | Cl.NCC(N)C(=O)O (stereo not shown) [2,3-Diaminopropionic acid hydrochloride] | – | – | Lipase (RFU) [7]: 1119.42 RFU
21 | Cc1ccc(C(=O)O)cc1C [3,4-Dimethylbenzoic acid] | – | 971.2489 | –
22 | C[C@H](CCC(=O)NCC(=O)O)[C@H]1CC[C@H]2[C@@H]3[C@H](O)C[C@@H]4C[C@H](O)CC[C@]4(C)[C@H]3C[C@H](O)[C@]12C [Glycocholic acid (sodium)] | 1089.709 | 967.7025 | –
23 | Nc1nc2c(nc(O)n2[C@H]2C[C@H](O)[C@@H](CO)O2)c(=O)[nH]1 [8-Hydroxy-2′-deoxyguanosine] | – | 909.8926 | –
24 | OCc1ccccc1 [Benzyl alcohol] | 818.7648 | – | Lipase (RFU) [7]: 918.5791 RFU

Row | Molecule | Lipase (RFU) [1] [RFU] | Lipase (RFU) [3] [RFU] | also measured
25 | O=C(O)Cc1ccc(O)cc1 [p-Hydroxy Phenyl Acetic Acid] | – | – | Lipase (RFU) [2]: 1082.882 RFU
26 | CN(C)c1ncnc2nc[nH]c12 [6-(Dimethylamino)purine] | – | 877.529 | –
27 | CCOC(=O)OC(=O)OCC [Diethyl pyrocarbonate] | 886.6617 | – | –
28 | CC1=CC(=O)c2ccccc2C1=O [Menadione] | – | – | Lipase (RFU) [6]: 774.4043 RFU
29 | C[C@@H]1CC[C@H]2C(C)(C)[C@H]3C[C@@]12CC[C@@]3(C)O [Cedrol] | 993.211 | – | –
30 | C[S+]([O-])CC[C@H](N)C(=O)O (stereo partly shown) [Methionine sulfoxide] | – | 1067.927 | –
31 | C=CC(=C)CCC=C(C)C [Myrcene] | 1129.48 | 870.9314 | –
32 | COc1cc(/C=C/C=O)ccc1O [Coniferaldehyde] | – | – | Lipase (RFU) [7]: 1169.824 RFU
33 | O=C1O[C@H](CO)[C@@H](O)[C@H](O)[C@H]1O [D-(+)-Glucono-1,5-lactone] | 1105.401 | – | Lipase (RFU) [7]: 890.9945 RFU
34 | NCC(=O)NCC(=O)O [Glycylglycine] (H-Gly-Gly-OH) | – | – | Lipase (RFU) [7]: 704.4034 RFU
35 | OC[C@H]1OC[C@H](O)[C@@H](O)[C@@H]1O [1,5-Anhydrosorbitol] | – | – | Lipase (RFU) [7]: 1053.017 RFU
36 | O=C(OCc1ccccc1)c1ccccc1O [Benzyl salicylate] | 910.7358 | – | Lipase (RFU) [7]: 985.0357 RFU
37 | O=C(CO)[C@@H](O)[C@@H](O)CO [L-Ribulose] | – | – | Lipase (RFU) [7]: 1193.604 RFU
38 | CC(C)=CCOc1c2ccoc2cc2oc(=O)ccc12 [Isoimperatorin] | – | 919.4728 | –
39 | COc1cc(/C=C/C(=O)NCCc2ccc(O)cc2)ccc1O [N-trans-Feruloyltyramine] | – | 1056.278 | –
40 | CCCCCCCCCCCCCCC(=O)O [Pentadecanoic acid] | 930.9364 | 941.0256 | –
41 | CC1OCCC1=O (stereo not shown) [2-Methyltetrahydrofuran-3-one] | 1091.025 | – | –
42 | C=C1C[C@@]2(O)O[C@@]3(C[C@H]2C(C)C)[C@@H](C)CC[C@@H]13 [Curcumol] | – | 1045.93 | –
43 | CCCCCCCCCCCCCC(=O)O[C@H]1CC[C@@]2(C)C(=CC[C@H]3[C@@H]4CC[C@H]([C@H](C)CCCC(C)C)[C@@]4(C)CC[C@@H]32)C1 [Cholesterol myristate] | – | 751.9361 | –
44 | N[C@@H](CCC(=O)N[C@@H](CS)C(=O)NCC(=O)O)C(=O)O [Glutathione] | – | – | Lipase (RFU) [4]: 715.7865 RFU; Lipase (RFU) [6]: 1028.094 RFU
45 | CCCCCCCCCCCCCCCCCCCCCCCC(=O)O [Lignoceric acid] | – | 1102.31 | –
46 | O=c1ccn([C@@H]2O[C@H](CO)[C@@H](O)[C@H]2OP(=O)(O)O)c(=O)[nH]1 [Uridine-2′-monophosphate] | – | – | Lipase (RFU) [4]: 909.0878 RFU
47 | CNc1ccccc1C(=O)OC [Methyl N-methylanthranilate] | 860.2221 | – | –
48 | C/C=C(/C)C(=O)O[C@H]1Cc2cc3ccc(=O)oc3cc2OC1(C)C [Decursinol angelate] | – | – | Lipase (RFU) [7]: 819.0637 RFU

Row | Molecule | Lipase (RFU) [1] [RFU] | Lipase (RFU) [3] [RFU] | also measured
49 | OC[C@@H](O)[C@@H](O)[C@@H](O)CO [Adonitol] | – | – | Lipase (RFU) [2]: 916.8639 RFU
50 | CC(C)=CCC/C(C)=C\CO [Nerol] | 1033.533 | – | –
51 | O=S1(=O)CCCC1 [Tetramethylene Sulfone] | – | – | Lipase (RFU) [4]: 353.4767 RFU; Hit in lipase inhibition screen (in words) [8]: significantly inhibited lipase activity
52 | CCCCCCCCCCCC(=O)OC [Methyl laurate] | 1102.654 | 915.378 | –
53 | CC(C)=CCC/C(C)=C/C=O [Citral] | 1048.78 | – | –
54 | O=C(O)[C@H](O)[C@@H](O)[C@H](O)[C@H](O)COP(=O)(O)O [6-Phospho-Gluconic Acid] | – | – | Lipase (RFU) [4]: 914.9964 RFU
55 | Madecassoside | – | 934.5314 | –
56 | CCOC(=O)CC(O)(CC(=O)OCC)C(=O)OCC [Triethyl citrate] | 1099.976 | – | –
57 | COc1ccc(O)cc1 [Mequinol] | – | 791.9775 | –
58 | Cn1cnc2c(ncn2[C@@H]2O[C@H](CO)[C@@H](O)[C@H]2O)c1=O [Compound 1-Methylinosine, 1-Methylinosine] | – | 1112.685 | –
59 | N[C@@H](CCC(=O)O)C(=O)O [L-Glutamic acid (monosodium salt)] | 1153.122 | – | Lipase (RFU) [7]: 1136.789 RFU
60 | tocopherol [Vitamin E] | – | – | Lipase (RFU) (Table 7, 500 μg/mL (vitamin C, E, carbonate/bicarbonates), human milk stored 1 week at −20° C., inhibited if RFU <400): 656.444 RFU
61 | O=c1c(O)c(-c2cc(O)c(O)c(O)c2)oc2cc(O)cc(O)c12 [Myricetin] | – | – | Hit in lipase inhibition screen (in words) [8]: significantly inhibited lipase activity
62 | CC(=O)c1ccccc1 [Acetophenone] | 1002.631 | 830.3825 | –
63 | C[C@@H]1O[C@@H](O[C@H]2[C@H](Oc3cc(O)c4c(c3)O[C@H](c3ccc(O)cc3)CC4=O)O[C@H](CO)[C@@H](O)[C@@H]2O)[C@H](O)[C@H](O)[C@H]1O [Naringin] | – | 1050.76 | –
64 | CCCCC/C=C\C/C=C\C/C=C\C/C=C\CCCC(=O)O [Arachidonic acid] | – | 1207.834 | –
65 | O=C(O)CC1CCCCC1 [Cyclohexaneacetic acid] | 958.7865 | – | –
66 | C[C@H](CCC(=O)O)[C@H]1CC[C@H]2[C@@H]3C[C@H](O)[C@@H]4C[C@H](O)CC[C@]4(C)[C@H]3CC[C@]12C [Hyodeoxycholic acid] | – | – | Lipase (RFU) [7]: 761.6081 RFU
67 | O=c1c(-c2ccc(O)cc2)coc2cc(O[C@@H]3O[C@H](CO)[C@@H](O)[C@H](O)[C@H]3O)cc(O)c12 [Genistin] | – | 1023.483 | –
68 | CC(O)C(C)O (stereo not shown) [2,3-Butanediol] | – | 772.4441 | Lipase (RFU) [5]: 960.3042 RFU
69 | Nc1ccn([C@@H]2O[C@H](CO)[C@@H](O)[C@H]2OP(=O)(O)O)c(=O)n1 [Cytidine-2′-monophosphate] | – | – | Lipase (RFU) [4]: 1065.318 RFU
70 | CCCCC(CC)COC(=O)c1ccccc1C(=O)O (stereo not shown) [Phthalic acid mono-2-ethylhexyl ester] | – | 998.7071 | –
71 | N[C@@H](CS)C(=O)O [L-Cysteine (hydrochloride hydrate)] | 1046.57 | – | –
72 | CC1CCC(C(C)C)C(O)C1 (single isomer, unassigned; (-)) [(−)-Menthol] | – | 1023.319 | –
